System: T cells
Settings: tested up to a concentration of 50 mM

`O=C(O)CCCC[C@@H]1SC[C@@H]2NC(=O)N[C@@H]21` [biotin] was tested, and the “toxicity or changes of T cell function” value was “non-toxic for T cells and does not alter T cell function”.

Source: patent US8298782B2, “Reversible MHC multimer staining for functional purification of antigen-specific T cells” (priority 2000, dated 2012)
